Measured values reported in patent US9850258B2, “Substituted tetrahydrocarbazole and carbazole carboxamide compounds” (BRISTOL-MYERS SQUIBB COMPANY, priority 2013, dated 2017).

Tested on: CD69 expression on B cells in human whole blood
Assay: Whole Blood Assay of BCR-Stimulated CD69 Expression on B Cells
Format: cell-based

IC50: 240 nM
Compound: Cc1cc(C(N)=O)c2[nH]c3cc(C(C)(C)O)ccc3c2c1-c1cccc(-n2c(=O)c3cccc(F)c3n(C)c2=O)c1C (atropisomer, axis not shown) [Example 29, 4-(R)-(3-(S)-(8-Fluoro-1-methyl-2,4-dioxo-1,2-dihydroquinazolin-3(4H)-yl)-2-methylphenyl)-7-(2-hydroxypropan-2-yl)-3-methyl-9H-carbazole-1-carboxamide]
